Measurements published in patent US20210386828A1, “METHODS FOR ENHANCING CANCER IMMUNOTHERAPY” (The Regents of the University of California, priority 2018, published 2021).

Legend:
p300/CBP = assay: p300 immunoblot and imaging; type: cell-based, mouse; details: for nuclear foci / nucleolar localization of p300: high resolution imaging
[1] = system: Ifngr2, Tap1 and Psmb8 promoters; assay: ChIP analysis of promoters
[2] = system: histone acetyltransferase (HAT); assay: HAT activity in lysates of treated cells

Compound	nuclear amount of p300 and acetylated p300/CBP (p300/CBP; Myc-CaP cells)	nuclear foci / nucleolar localization of p300 (p300/CBP)	p65/NF-κB recruitment to the Ifngr2 promoter [1]	p300 recruitment to Ifngr2 and Tap1 promoter [1]	stimulation of HAT activity at 2 μM versus 4 μM [2]
O=C1[O][Pt]2([NH][C@@H]3CCCC[C@H]3[NH]2)[O]C1=O [Oxali, oxaliplatin]	increased the amount of total EP300 and acetylated p300/CBP in nuclei	induced the formation of nuclear foci containing p300	enhanced	increased	greater stimulation of HAT activity than at 4 μM
Cc1[nH]c2ccccc2c1CCNCc1ccc(/C=C/C(=O)NO)cc1 [Panabinostat]	–	only led to an increased amount of nuclear p300 but not nucleolar infiltration	–	–	–
